From US20250368686A1, “PEPTIDE DRUGS FOR S[…] D[…] BLOCKING HOMO- AND HETERO-DIMERIZATION OF OPIOID RECEPTORS” (OKINAWA INSTITUTE OF SCIENCE AND TECHNOLOGY SCHOOL …, priority 2022, published 2025)

Test system: MOR
Type: cell-based, rat
Conditions: D- and K-cells

CN1CC[C@]23c4c5ccc(O)c4O[C@H]2[C@@H](O)C=C[C@H]3[C@H]1C5 [morphine]
intracellular Ca2+ mobilisation: not
